## scFv variants of Ab-14 (light chain) against a SARS-CoV-2 spike peptide

From the AlphaSeq antibody data of Li et al. 2023 (doi:10.1038/s41467-023-39022-2), copy in the FLAb collection.

All variants were tested on one target, the spike HR2 peptide PDVDLGDISGINAS (SARS-CoV-2).

The variants keep the heavy chain, the linker and the frameworks of Ab-14 (scFv order VH, a 15-residue (Gly4Ser)3 linker, VL).
VH: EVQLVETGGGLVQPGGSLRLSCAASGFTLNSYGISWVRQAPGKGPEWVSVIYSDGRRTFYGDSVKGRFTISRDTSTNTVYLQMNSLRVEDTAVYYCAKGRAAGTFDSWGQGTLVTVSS
VL: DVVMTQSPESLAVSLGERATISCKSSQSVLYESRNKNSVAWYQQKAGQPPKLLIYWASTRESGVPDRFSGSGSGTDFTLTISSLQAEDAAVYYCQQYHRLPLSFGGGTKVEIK

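The variants were designed computationally from a first round of random CDR variants and then made and measured. Group labels follow the data file (Ctrl: baseline library sampled from a position-specific scoring matrix, with some repeated check sequences; GP: Gaussian process model; GPLM: also part of the Gaussian process libraries; HC: hill climbing; Gen: genetic algorithm; Gibbs: Gibbs sampling; a sequence that several methods proposed may carry one label only). In AlphaSeq, yeast of one mating type display the scFv and yeast of the other type display the target. The frequency of each diploid, read from paired DNA barcodes, reflects how well the two displayed proteins bind. Read counts were normalised to the haploid input and turned into Kd by a linear fit to BCL2-family pairs of known affinity, for each replicate. Mating was done six times.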

Each variant is given by its three light chain CDRs, as the data file delimits them; those of the parent are KSSQSVLYESRNKNSVA, WASTRES, QQYHRLPLS. This list holds designs with at most six substitutions. Numbers give log10(Kd / nM), so 0 is 1 nM and 3 is 1 µM. Smaller is tighter. A mean of the replicates is given; it leaves out those without a signal. An entry "nd" has no value in the source: the pair was not observed among the diploids in any replicate. This suggests poor binding but is not conclusive. As a blank, each scFv also met three strains without target: over all light chain designs, 4% of these pairings were detected, typically at 2.64 and seldom below 1.59. The range of this assay differs from that of the first round, and the authors advise against merging the two. The parent sequence was in this pool as ten entries: three were never detected, three once, and four in most replicates, with averages from 0.34 to 2.37. The authors averaged sequences with at least three values out of six and counted those with two or fewer as poor binders.

- KLSQQNLYESRMKNSVA / MASQRES / QQYHRLPLS [GP_Gibbs] -> nd (0 of 6 replicates)
- KLQQSVLYESRNKNSVA / QASTRSS / QQYHRLPLS [GP_Gen] -> 0.10 (6 of 6 replicates)
- KLSQSVIYESRNKNSVA / WASTRES / QQYHRLPLS [Ctrl] -> 0.19 (6 of 6 replicates)
- KNSQSVLYESGNKNSVA / WASTRES / QQYHRLPLS [Ctrl] -> 0.58 (6 of 6 replicates)
- SLMQSVLYESRNKNSVA / HASQRED / QQYHRLPLS [GP_HC] -> -0.27 (6 of 6 replicates)
- KLPQSVDYESRYKNSVA / EASTRES / QQYHRLPLS [Ctrl] -> 0.41 (6 of 6 replicates)
- KSKQSVLYESRNKNSVA / WASTRES / QQYHRLPLS [Ctrl] -> nd (0 of 6 replicates)
- ASSQSVLEESWNKNSVA / WASTREV / QQYHRLPLS [Ctrl] -> 1.42 (6 of 6 replicates)
- KSSQSVLYESRGKNSVA / SASTRES / QQYHRLPLS [Ctrl] -> 1.21 (6 of 6 replicates)
- HLSDSVLYESRNKNSVA / NASTRES / QQYHRLPLG [GP_HC] -> -0.24 (6 of 6 replicates)
- ASSQSVLFESRNKNSVA / DASTRES / QQYHRLPLS [GP_HC] -> 0.05 (6 of 6 replicates)
- KLQQSVLYESRNKNSVA / NASTRMM / QQYHRLPLS [GP_Gen] -> 0.12 (6 of 6 replicates)
- KSSQEVLYESRNKESVA / AASTRES / QQYMRLPLS [Ctrl] -> -0.23 (6 of 6 replicates)
- KLSQSVLYESRNKNSVA / QASTREQ / QQYHRLPLS [GP_Gen] -> -0.25 (6 of 6 replicates)
- KYAFSDLNESRNKNSVA / EASTRES / QQYHRLPLS [GP_Gibbs] -> 0.11 (6 of 6 replicates)
- KVSQSVGYGSRNKNSVA / EASTRES / QQYHRLPLY [GP_Gibbs] -> 0.31 (6 of 6 replicates)
- KVSQSELGESRNKMSVA / SASTREK / QQYHRLPLS [GP_Gibbs] -> 0.70 (6 of 6 replicates)
- KSSQSVLYESRNKNSVA / EASTREA / QQYHRLPLS [Ctrl] -> 0.57 (6 of 6 replicates)
- HSSPSVLYESRNGNSVA / NASTREV / QQYHRLPLS [GP_HC] -> 0.80 (6 of 6 replicates)
- SFSQSVLYESRQKNSVA / NASTRES / QQYHRLPLS [GP_HC] -> 0.18 (6 of 6 replicates)
- KCSQSVLGESRNKNSFA / NASTRES / QQYSRLPLF [Ctrl] -> 0.27 (6 of 6 replicates)
- KLPQSELYESRNKNSVA / NASQREQ / QQYHRLPLS [GP_Gen] -> -0.12 (6 of 6 replicates)
- KASQAFLYESRNKNSVA / DANTRES / QQYHRLPLS [GP_HC] -> 0.49 (6 of 6 replicates)
- KSGQGVLYESRNKNSVA / GASQRIS / QQYHRLPLS [GP_HC] -> -0.18 (6 of 6 replicates)
- KLSQSMDYESRNKNSVA / NASTRES / QQYHRLPLS [GP_Gen] -> -0.05 (6 of 6 replicates)
- KCSQSVLFESRNKNSVA / DASTRES / QQYHRLPLS [GPLM_HC] -> 0.02 (6 of 6 replicates)
- KFSQSVGYESRNKNSVA / NAQTRMD / QQYHRLPLS [GP_Gibbs] -> 0.46 (6 of 6 replicates)
- KLDQSVLYESRNKNSVA / GASTRES / QQYHRLPLS [GP_Gen] -> -0.30 (6 of 6 replicates)
- KYSQSMLYESRNKNSVA / WASTRIS / QQYHRLPLS [Ctrl] -> 1.64 (6 of 6 replicates)
- KSLQGVLYESRNKNSVA / GASQRES / QQYHRLPLS [GP_HC] -> 0.04 (6 of 6 replicates)
- KSSQSVKNESRNKNSVA / DASTRES / QQYHRLPLS [GP_HC] -> 0.53 (6 of 6 replicates)
- KQSQSVLMESVNKNSVA / DASTRES / QQYHRLPLS [GP_HC] -> -0.09 (6 of 6 replicates)
- KMSQSVLYESRNKNSVA / DASTRES / QQYHRLPLD [GP_HC] -> 0.41 (6 of 6 replicates)
- KSSQSVLYESENKNSVA / WASTRES / QQYHALPLS [Ctrl] -> 0.65 (6 of 6 replicates)
- KSSQSVLYERRNKNSVA / WANTRES / QQYHRYPLS [Ctrl] -> nd (0 of 6 replicates)
- KSSQSVLSEPRNKNSVA / DASTRES / QQYHRLPLS [GP_HC] -> -0.05 (6 of 6 replicates)
- KSQQSWLYESRNKNNVA / HASTRED / QQYARLPLS [GP_HC] -> 0.99 (6 of 6 replicates)
- KMSQGVLYESRNKNSVA / GGSTRES / QQYHRLPLS [GP_HC] -> -0.19 (6 of 6 replicates)
- KLSQSVLYESRNKNNVA / DASTRES / QAYHRLPLS [GP_Gen] -> -0.43 (6 of 6 replicates)
- KKSQSVLYESCNKNSVA / MASTREM / QQYHRLPLS [Ctrl] -> 1.67 (5 of 6 replicates)

The first 3 entries again:

CDR-L1	CDR-L2	CDR-L3	group	log10 Kd (nM), mean	seen in
KLSQQNLYESRMKNSVA	MASQRES	QQYHRLPLS	GP_Gibbs	nd	0 of 6
KLQQSVLYESRNKNSVA	QASTRSS	QQYHRLPLS	GP_Gen	0.10	6 of 6
KLSQSVIYESRNKNSVA	WASTRES	QQYHRLPLS	Ctrl	0.19	6 of 6